Test results published in patent US20080206834A1, “RECOMBINANT ORGANOPHOSPHOROUS ACID ANHYDRASE AND METHODS OF USE” (published 2008).

Columns and labels:
Drosophila melanogaster = experiment: Fly bioassay: pesticide-impregnated filters with or without crude enzyme; conditions: overnight
recombinant OPA enzyme = recombinant OPA enzyme (Brevundimonas diminuta, UniProt P0A434); experiment: Kinetic constants for the hydrolysis of organophosphorus insecticides (substrate specificity); conditions: for Km: pH 9, 100 mM CHES buffer, 10% methanol; for (V/K)ref / Vref: pH 9, 100 mM CHES, paraoxon = 100
fall army worms = experiment: Mortality versus amount of paraoxon applied to caterpillars

Compound: O,O-diethyl-O-[2-isopropyl-4-methyl-6-pyrimidyl] phosphorothioate
- Percent survival (Drosophila melanogaster; pesticide 11.0 μg, crude enzyme 0 mg): 0%
- Percent survival (Drosophila melanogaster; pesticide 11.0 μg, crude enzyme 0.87 mg): 100%
- Percent survival (Drosophila melanogaster; pesticide 22.0 μg, crude enzyme 0 mg): 0%
- Percent survival (Drosophila melanogaster; pesticide 22.0 μg, crude enzyme 0.87 mg): 100%
- Km (recombinant OPA enzyme): 450 µM
- (V/K)ref (recombinant OPA enzyme): 1.68
- Vref (recombinant OPA enzyme): 8.4

Compound: COP(=S)(OC)Oc1ccc(SC)c(C)c1
- Percent survival (Drosophila melanogaster; pesticide 1.5 μg, crude enzyme 0 mg): 0%
- Percent survival (Drosophila melanogaster; pesticide 1.5 μg, crude enzyme 0.87 mg): 0%
- Percent survival (Drosophila melanogaster; pesticide 7.7 μg, crude enzyme 0 mg): 0%
- Percent survival (Drosophila melanogaster; pesticide 7.7 μg, crude enzyme 0.87 mg): 0%
- Percent survival (Drosophila melanogaster; pesticide 46.0 μg, crude enzyme 0 mg): 0%
- Percent survival (Drosophila melanogaster; pesticide 46.0 μg, crude enzyme 0.87 mg): 0%

Compound: CNC(=O)Oc1cccc2c1OC(C)(C)C2
- Percent survival (Drosophila melanogaster; pesticide 1.0 μg, crude enzyme 0 mg): 100%
- Percent survival (Drosophila melanogaster; pesticide 1.0 μg, crude enzyme 0.87 mg): 100%
- Percent survival (Drosophila melanogaster; pesticide 7.6 μg, crude enzyme 0 mg): 20%
- Percent survival (Drosophila melanogaster; pesticide 7.6 μg, crude enzyme 0.87 mg): 10%
- Percent survival (Drosophila melanogaster; pesticide 11.5 μg, crude enzyme 0 mg): 0%
- Percent survival (Drosophila melanogaster; pesticide 11.5 μg, crude enzyme 0.87 mg): 0%
- Percent survival (Drosophila melanogaster; pesticide 22.9 μg, crude enzyme 0 mg): 0%
- Percent survival (Drosophila melanogaster; pesticide 22.9 μg, crude enzyme 0.87 mg): 0%

Compound: CCOP(=O)(OCC)Oc1ccc([N+](=O)[O-])cc1
- LD50 (fall army worms; control group (mixture of uninfected and pAC311 infected caterpillars)): 9 µg
- factor of increase of the lethal dose (fall army worms; infected versus control caterpillars, due to presence of the opd gene): at least 220
- LD50 (fall army worms; moth stage): 1 µg
- LD50 (fall army worms; pV941-29 infected caterpillars): 2000 μ
- (V/K)ref (recombinant OPA enzyme): 100
- Vref (recombinant OPA enzyme): 100

Compound: O,O-diethyl [p-(methylsulfinyl) phenyl] phosphorothioate
- Km (recombinant OPA enzyme): 460 µM
- (V/K)ref (recombinant OPA enzyme): 0.63
- Vref (recombinant OPA enzyme): 3.2

Compound: CNC(=O)O/N=C/C(C)(C)SC
- Percent survival (Drosophila melanogaster; pesticide 9.5 μg, crude enzyme 0 mg): 0%
- Percent survival (Drosophila melanogaster; pesticide 9.5 μg, crude enzyme 0.87 mg): 0%

Compound: CP(C)(=S)Oc1ccc([N+](=O)[O-])cc1
- Km (recombinant OPA enzyme): 840 µM
- (V/K)ref (recombinant OPA enzyme): 0.26
- Vref (recombinant OPA enzyme): 2.4

Compound: O,O-diethyl-O-[3-chloro-4-methyl-2-oxo-2H-lbenzopyran-7-yl]phosphorothioate
- Km (recombinant OPA enzyme): 390 µM
- (V/K)ref (recombinant OPA enzyme): 6.70
- Vref (recombinant OPA enzyme): 29

Compound: CCOP(=S)(OCC)Oc1nc(Cl)c(Cl)cc1Cl
- Km (recombinant OPA enzyme): 110 µM
- (V/K)ref (recombinant OPA enzyme): 0.07
- Vref (recombinant OPA enzyme): 0.08

Compound: CCOP(=S)(OCC)Oc1ccc([N+](=O)[O-])cc1
- Percent survival (Drosophila melanogaster; pesticide 1.2 μg, crude enzyme 0 mg): no fly survived
- Percent survival (Drosophila melanogaster; pesticide 1.2 μg, crude enzyme 0 mg, listed as Parathion): 0%
- Percent survival (Drosophila melanogaster; pesticide 1.2 μg, crude enzyme 0.87 mg): 100%
- Percent survival (Drosophila melanogaster; pesticide 12.4 μg, crude enzyme 0 mg): 0%
- Percent survival (Drosophila melanogaster; pesticide 12.4 μg, crude enzyme 0.87 mg): 100%
- Percent survival (Drosophila melanogaster; pesticide 41.1 μg, crude enzyme 0 mg): 0%
- Percent survival (Drosophila melanogaster; pesticide 41.1 μg, crude enzyme 0.87 mg): 100%
- Percent survival (Drosophila melanogaster; pesticide 82.6 μg, crude enzyme 0 mg): 0%
- Percent survival (Drosophila melanogaster; pesticide 82.6 μg, crude enzyme 0.87 mg): 50%
- Percent survival (Drosophila melanogaster; pesticide 82.6 μg, crude enzyme 1.74 mg): 100%
- Percent survival (Drosophila melanogaster; pesticide 124 μg, crude enzyme 0.87 mg): 0%
- Km (recombinant OPA enzyme): 240 µM
- (V/K)ref (recombinant OPA enzyme): 11.25
- Vref (recombinant OPA enzyme): 30

Compound: O,O-dimethyl-p-cyanophenyl phosphorothioate
- Km (recombinant OPA enzyme): 2100 µM
- (V/K)ref (recombinant OPA enzyme): 0.32
- Vref (recombinant OPA enzyme): 7.5
